{"source": "paper PMC6151961", "about": "(Journal of Enzyme Inhibition and Medicinal Chemistry, 2018)", "origin": "cited, not measured here", "target": "CA IX (Homo sapiens, UniProt Q16790)", "conditions": "observed Ki of library compounds (IDs A..., B...); ref ChEMBL, BindingDB; cited from earlier work"}
{"smiles": "Nc1ccc(S(=O)(=O)N[N+](=O)[O-])cc1", "values": [{"measurement": "Ki", "result": 8.19, "unit": "µM"}]}
